Experimental data: US20040058943A1, “Medicinal composition for treatment of chronic cardiac failure” (priority 2001, published 2004)

By UniProt entry, the sequences of proteins in these tests, tags left out. Residues count along the entry.
UniProt P25101, 21-427: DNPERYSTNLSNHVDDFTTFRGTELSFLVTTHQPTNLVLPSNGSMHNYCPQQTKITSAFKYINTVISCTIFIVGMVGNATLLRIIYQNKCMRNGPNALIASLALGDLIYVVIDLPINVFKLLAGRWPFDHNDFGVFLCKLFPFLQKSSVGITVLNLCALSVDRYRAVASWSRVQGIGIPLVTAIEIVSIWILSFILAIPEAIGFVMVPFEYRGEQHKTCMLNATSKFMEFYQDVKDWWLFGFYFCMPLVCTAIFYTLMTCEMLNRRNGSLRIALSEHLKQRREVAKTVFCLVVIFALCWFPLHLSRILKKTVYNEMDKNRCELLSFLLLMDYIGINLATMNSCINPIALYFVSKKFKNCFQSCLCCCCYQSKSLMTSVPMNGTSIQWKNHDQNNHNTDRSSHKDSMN

Tests used:
[1] = system: rats of heart failure after cardiac infarction prepared by coronary ligation; settings: rat, in vivo, po, 1 mg/kg
[2] = system: model rats of heart failure after myocardial infarction caused by coronary ligation; settings: rat, in vivo
[3] = system: rats of heart failure after cardiac infarction prepared by coronary ligation; settings: about 30 weeks oral once a day, 1 mg/kg·day; p < 0.01 vs control group
[4] = system: model rats of heart failure after myocardial infarction caused by coronary ligation; settings: in 24 weeks after start of administration; oral once a day, 1 mg/kg·day; control group 47.6%; p=0.013
[5] = system: rats of heart failure after cardiac infarction prepared by coronary ligation; settings: rat, in vivo, po, 1 mg/kg; remark: listed apart in the source
[6] = system: rats of heart failure after cardiac infarction prepared by coronary ligation; settings: in 30 weeks after start of administration; oral once a day, 1 mg/kg·day; control group 81.8%; p=0.0465
endothelin ETA receptor = endothelin ETA receptor (Homo sapiens, UniProt P25101); settings: cited from earlier work
[7] = system: ET-1 induced vasocontriction and hypertension; settings: cited from earlier work

| Compound | expansion of the left ventricular cavity [1] | hypertrophy and myocardial fibrosis in non-infarcted region [1] | Running Time [2] | Ratio of Left Ventricle Weight to Body Weight (LV + SEP)/BW [3] | Ratio of Right Ventricle Weight to Body Weight RV/BW [3] | Ratio of Wet Lung to Body Weight Lungs/BW [3] | mortality [4] | load to the right ventricle (RVSP, CVP) [5] | mortality [6] | inhibiting ET-1 binding to endothelin ETA receptor (endothelin ETA receptor) | preventing ET-1 induced vasocontriction and hypertension [7] |
| --- | --- | --- | --- | --- | --- | --- | --- | --- | --- | --- | --- |
| COc1ccccc1Oc1c(NS(=O)(=O)C=Cc2ccccc2)nc(-c2ncccn2)nc1OC.[K] [Compound 1, N-[6-methoxy-5-(2-methoxyphenoxy)-2-(2-pyrimidinyl)-4-pyrimidinyl]-2-phenylethenesulfonamide potassium salt] | inhibited the expansion of the left ventricular cavity | remarkably prevented the heart failure rats from having hypertrophy and myocardial fibrosis | 37.81 ± 3.6 min | 1.85 ± 0.08 | 0.57 ± 0.05 | 3.12 ± 0.09 | 0.7% | relieved | 55.0% | – | – |
| COc1ccccc1Oc1c(NS(=O)(=O)C=Cc2ccccc2)nc(-c2ncccn2)nc1OC [N-[6-methoxy-5-(2-methoxyphenoxy)-2-(2-pyrimidinyl)-4-pyrimidinyl]-2-phenylethenesulfonamide] | – | – | – | – | – | – | – | – | – | effective | effective |
